Yeast mating assay 1: variants of the scFv Ab-14

The target is the same throughout: PDVDLGDISGINAS, from the HR2 region of SARS-CoV-2 spike.

The variants keep the heavy chain, the linker and the frameworks of Ab-14 (scFv order VH, a 15-residue (Gly4Ser)3 linker, VL).
VH: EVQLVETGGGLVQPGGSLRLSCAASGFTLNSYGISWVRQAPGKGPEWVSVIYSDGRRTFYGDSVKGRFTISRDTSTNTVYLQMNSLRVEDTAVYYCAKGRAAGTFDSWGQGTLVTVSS
VL: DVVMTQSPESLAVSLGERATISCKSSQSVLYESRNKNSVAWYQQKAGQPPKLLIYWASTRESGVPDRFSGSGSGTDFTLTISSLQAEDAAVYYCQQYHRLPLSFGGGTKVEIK

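The parent was found by panning a naive human phage display library on the peptide. Library AAYL50 holds single substitutions and randomly drawn double and triple substitutions in the CDRs. The assay is AlphaSeq: two haploid yeast populations carry antibody and antigen on their surface. After mating in shaken culture at 30 °C for 16 h, diploids were selected and their barcode pairs sequenced. Scores were corrected for input abundance and mapped to Kd with protein pairs of known affinity run in the same pool. There are three technical replicates.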

Changes read parent residue, position, new residue, counted from the first residue of the VL shown. All variants listed here change Y97 of the VL, counted from its first residue. Kd is apparent (estimated from mating counts) and averaged on the log scale over replicates with a signal. Smaller is tighter. Where no diploid with the target was found in any replicate, the entry reads "nd": below detection, most likely a poor binder, though not proof of it. As a blank, each scFv also met three strains without target: over library AAYL50, 18% of these pairings were detected, typically at 15 µM and seldom below 970 nM. The control count says in how many pairings with the empty strains this scFv gave a signal.

* S28V/N35D/Y97H: 250 µM (1 of 3 replicates; controls 0 of 9)
* K24W/Q96S/Y97D: nd (0 of 3 replicates; controls 3 of 9)
* Y31W/Y97A/R99V: nd (0 of 3 replicates; controls 1 of 9)
* Q95F/Y97L/S103G: 3.1 µM (1 of 3 replicates; controls 0 of 9)
* S28A/N35A/Y97P: nd (0 of 3 replicates; controls 0 of 9)
* T59A/Y97D/H98A: 290 nM (3 of 3 replicates; controls 3 of 9)
* V29T/T59L/Y97H: 6.3 nM (3 of 3 replicates; controls 2 of 9)
* N35G/A40Q/Y97M: nd (0 of 3 replicates; controls 2 of 9)
* S33R/Y97M/L102A: 640 nM (3 of 3 replicates; controls 0 of 9)
* K36V/Q96W/Y97K: 380 nM (3 of 3 replicates; controls 1 of 9)
* V29G/S58H/Y97W: 120 nM (3 of 3 replicates; controls 0 of 9)
* Q95N/Y97L/S103N: 50 nM (2 of 3 replicates; controls 0 of 9)
* Y97C/L100N/S103W: 16 nM (3 of 3 replicates; controls 3 of 9)
* K24H/Q95P/Y97T: 3.3 nM (3 of 3 replicates; controls 1 of 9)
* S26K/Y97A/P101E: nd (0 of 3 replicates; controls 0 of 9)
* R34G/S38M/Y97P: 70 nM (3 of 3 replicates; controls 1 of 9)
* Y97N: 1.7 µM (3 of 3 replicates; controls 0 of 9)
* R60P/Y97E/P101M: 12 µM (2 of 3 replicates; controls 0 of 9)
* Y31F/Y97N: 50 nM (3 of 3 replicates; controls 4 of 9)
* S25H/Y31D/Y97A: 61 nM (3 of 3 replicates; controls 0 of 9)
* S26M/T59C/Y97S: 12 µM (2 of 3 replicates; controls 3 of 9)
* Q96W/Y97E/L102H: 11 µM (1 of 3 replicates; controls 1 of 9)
* K24Y/S25M/Y97H: 17 µM (3 of 3 replicates; controls 3 of 9)
* T59W/Y97N/H98R: 120 nM (3 of 3 replicates; controls 1 of 9)
* E61A/Y97C/H98K: 23 nM (3 of 3 replicates; controls 2 of 9)
* K24G/E61M/Y97A: 25 µM (2 of 3 replicates; controls 7 of 9)
* W56T/S62V/Y97V: 1.1 µM (1 of 3 replicates; controls 1 of 9)
* S28V/Y97N/H98Y: nd (0 of 3 replicates; controls 0 of 9)
* S38E/W56T/Y97S: 49 µM (1 of 3 replicates; controls 6 of 9)
* K24D/N37V/Y97N: 1.1 µM (3 of 3 replicates; controls 3 of 9)
* A40N/Q95A/Y97E: 44 µM (1 of 3 replicates; controls 4 of 9)
* A40F/T59G/Y97L: nd (0 of 3 replicates; controls 2 of 9)
* S26E/S38M/Y97K: 1.3 µM (3 of 3 replicates; controls 1 of 9)
* S33L/E61S/Y97E: 240 nM (3 of 3 replicates; controls 3 of 9)
* N35H/T59H/Y97T: 670 µM (1 of 3 replicates; controls 2 of 9)
* E61D/Y97F/L100P: nd (0 of 3 replicates; controls 0 of 9)
* L30E/Y31V/Y97L: 33 nM (3 of 3 replicates; controls 4 of 9)
* V39P/Y97T: 190 µM (2 of 3 replicates; controls 3 of 9)
* S38I/Y97K: nd (0 of 3 replicates; controls 2 of 9)
* A57Q/R60W/Y97H: 11 µM (2 of 3 replicates; controls 3 of 9)
* Y31P/K36A/Y97L: 3.5 nM (3 of 3 replicates; controls 1 of 9)
* S25P/R60L/Y97F: 550 µM (1 of 3 replicates; controls 2 of 9)
* R60P/Y97H/S103H: nd (0 of 3 replicates; controls 0 of 9)
* Q27S/R34F/Y97K: 2.8 nM (3 of 3 replicates; controls 0 of 9)
* S28I/S62Y/Y97L: 9.5 µM (1 of 3 replicates; controls 0 of 9)
* A40M/T59D/Y97T: 54 µM (2 of 3 replicates; controls 2 of 9)

The opening 8 entries, copied out:

changes,apparent Kd,replicates with signal,signal with controls
S28V/N35D/Y97H,250 µM,1/3,0/9
K24W/Q96S/Y97D,nd,0/3,3/9
Y31W/Y97A/R99V,nd,0/3,1/9
Q95F/Y97L/S103G,3.1 µM,1/3,0/9
S28A/N35A/Y97P,nd,0/3,0/9
T59A/Y97D/H98A,290 nM,3/3,3/9
V29T/T59L/Y97H,6.3 nM,3/3,2/9
N35G/A40Q/Y97M,nd,0/3,2/9

Parent in this assay: reference entry 4.4 nM, copy in this library 48 nM.

Values reported by Engelhart et al. 2022, doi:10.1038/s41597-022-01779-4 (FLAb copy).